High-throughput results deposited in PubChem by several laboratories.
ALR H2O2 inh – blocks human ALR sulfhydryl oxidase activity; P55789; purified ALR, DTT oxidation, H2O2 HRP-luminol luminescence; inhibition, % (test concentration not listed); 3.8% of 290,000 active; AID 485317;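 active = mean and each replicate at 75% or more; inconclusive = only one of the two met; inactive = neither met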;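 also: stock transfer was 7.5 nL into about 7.5 µL; 0% = neutral wells and 100% = wells with inactivated enzyme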
HDAC3 inhib – blocks human histone deacetylase 3 | recombinant HDAC3, fluorogenic peptide/trypsin coupled, fluorescence | 0.15% of 320,000 active | inhibition, % at 8.3 µM | O15379; in the data active = inhibition above about 26%, passing the limit was not always enough; inconclusive = no clear call, values can overlap the other calls
Yeast UUG start – modulators of yeast start codon fidelity, primary screen, whole organism, S. cerevisiae, single point, plate reader; S. cerevisiae UUG-firefly luciferase reporter, luminescence/redox ratio; activity score, % at 18.7 µM; actives 0.13% (n = 350,000); AID 602363, 2012;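 active = replicate mean at a twofold rise or more, about +100% in these data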;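 also: firefly luciferase made from a UUG start codon reports start codon fidelity; reporter light over untreated wells divided by growth signal over untreated wells; some hits fall short of that in this replicate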
MC4R antag cAMP – antagonists of human melanocortin 4 receptor (MC4R) | MC4R-expressing cells, MTII-stimulated cAMP, LANCE TR-FRET | AID 540295 | P32245 | inhibition, % at 6.5 µM | 0.48% of 360,000 active;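 active = inhibition above its plate's cutoff, the mean of tested wells on that plate plus 3 SD, cut at about 29% in these data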;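 note: 0% = Melanotan II alone and 100% = Melanotan II plus saturating MCL0020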
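Material – human MC4R-expressing U2OS cells · Repeats – no replicates · Detection – TR-FRET with Eu-cAMP and labeled anti-cAMP, 671 nm · Times – compound 30 min, challenge 1 h, detection 1 h · Compound – single nominal compound dose of 6.5 µM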
MC4R barr agon – activates human MC4R beta-arrestin recruitment; P32245; U2OS MC4R beta-arrestin complementation, luminescence; percent of melanotan II response, DMSO zero; activation, % at 8.9 µM; 0.98% of 360,000 active; AID 540308;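 active = activation above a per-plate cutoff, the mean activation of sample wells on that plate plus 3 SD, cut at about 8% in these data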
NALP1 yeast inh – NALP1 inhibition | S. cerevisiae NALP1/ASC/caspase-1 growth, X-gal OD620, 72 h | inhibition, % at 10 µM | 0.61% of 280,000 active | AID 2071; in the data active = inhibition mostly above about 24%, no sharp cut-off; inactive = mostly below about 32%
Active calls of the source: *; ? = inconclusive; nt = not tested or not shown. Hits are enriched below; roughly 4.2% of the tested compounds scored in any of these assays.

Order of results – NALP1 yeast inh, Yeast UUG start, MC4R antag cAMP, ALR H2O2 inh, MC4R barr agon, HDAC3 inhib
1	O=C(COc1ccccc1[N+](=O)[O-])N/N=C/c1ccc(O)c([N+](=O)[O-])c1
→ -3, nt, 0, -7, -2, 11
2	COc1cccc(/C=N/NC(=O)C(C)Sc2ccccc2)c1 (stereo not given)
→ 30*, nt, 2, -5, 1, -4
3	O=C(COc1ccccc1C(=O)N/N=C\c1ccc(O)c(O)c1)N/N=C/c1ccc(O)c(O)c1
→ 1, -12, 1, 99*, -2, 13
4	Cc1ccc(S(=O)(=O)N2C[C@H](O)COC[C@@H]3O[C@H](CC(=O)NCCN4CCCCC4)CC[C@H]32)cc1
→ nt, -4, nt, nt, nt, nt
5	COc1ccccc1OCc1ccc(C(=O)NC2CCCCC2)o1
→ 4, -15, 13, 5, 0, 7
6	COc1ccccc1S(=O)Cc1ccc(C(=O)NC2CCCC2)o1 (stereo not given)
→ -3, -15, 1, 94*, 0, 18
7	COc1ccc(NC(=O)Nc2cccc3c2O[C@H](CN(C)C(=O)Nc2c(C)noc2C)[C@H](C)CN([C@H](C)CO)C3=O)cc1
→ nt, -4, nt, nt, nt, nt
8	Cc1ccc(-c2nc(N)s[n+]2-c2ccccc2)cc1
→ 12, nt, -2, -9, -1, 62*
9	CNc1nc(-c2ccccc2)[n+](-c2ccc(C)cc2)s1
→ 0, nt, 22, 58, 1, 42*
10	Cc1ccc(-c2nc3ccccc3nc2-c2ccccc2)cc1
→ -6, -12, -1, 10, -1, 3
11	CNC(=O)C[C@@H]1CC[C@@H]2[C@H](COc3ccc(NC(=O)NCc4ccccc4)cc3C(=O)N2C)O1
→ nt, 17, nt, nt, nt, nt
12	C[C@@H]1CCCCO[C@H](CN(C)S(C)(=O)=O)[C@@H](C)CN([C@@H](C)CO)C(=O)c2cc(NC(=O)Nc3ccc4c(c3)OCO4)ccc2O1
→ nt, 11, nt, nt, nt, nt
13	CCN(CC)c1ccc(C2C(C(=O)OCCOC)=C(C)NC3=C2C(=O)CC(C)(C)C3)cc1 (stereo not given)
→ 11, 4, 1, 99*, -1, -2
14	CCN(CC)c1ccc(C2CC(=O)NC3=C2C(=O)CC(C)(C)C3)cc1 (stereo not given)
→ 5, -5, 4, 95*, -1, -1
15	CN(C)c1ccc(C2CC(=O)NC3=C2C(=O)CC(C)(C)C3)cc1 (stereo not given)
→ -11, -4, -5, ?, 0, 11
16	CCc1ccc(-c2nc(CSCC(=O)NCc3ccco3)c(C)o2)cc1
→ -8, nt, 0, nt, -2, nt
17	Cc1ccc(-c2nc(CSCC(=O)Nc3cc(C)on3)c(C)o2)cc1
→ 5, -9, -3, nt, -1, -10
18	Cc1cc(NC(=O)CSCc2nc(-c3cccc(F)c3)oc2C)no1
→ 40*, -13, 2, 60, 0, 2
19	CCCNC(=O)CSCc1nc(-c2ccc(SC)cc2)oc1C
→ -8, nt, 10, 99*, -2, -3
20	COC(CNC(=O)CSCc1nc(-c2ccc(SC)cc2)oc1C)OC
→ 4, nt, 18, 99*, 1, 2
21	COc1ccc(-c2ccc3c(c2)[C@H]2[C@H](CCN2S(=O)(=O)c2ccc(OC)cc2)[C@@H](CO)N3)cc1
→ nt, -12, nt, nt, nt, nt
22	Nc1ccccc1SCc1c(Cl)cccc1Cl
→ -10, nt, -4, 40, 8.5*, -1
23	C[C@H](CO)N1C[C@H](C)[C@H](CN(C)S(=O)(=O)c2ccc(Cl)cc2)Oc2ccc(NC(=O)NC3CCCCC3)cc2CC1=O
→ nt, 0, nt, nt, nt, nt
24	Cc1[nH]c2ccccc2c1CCCO
→ 8, nt, nt, 99*, nt, 0
25	C[C@@H]1CCCCO[C@H](CN(C)S(=O)(=O)c2ccc(F)cc2)[C@@H](C)CN([C@@H](C)CO)C(=O)c2cc(NC(=O)Nc3cccc4ccccc34)ccc2O1
→ nt, -10, nt, nt, nt, nt
26	O=C(O)c1ccc(S(=O)(=O)N2CCCc3ccccc32)cc1
→ 24, -23, 4, 15, -2, 8
27	NC(=O)c1ccsc1NC(=O)c1ccc(S(=O)(=O)N2CCCc3ccccc32)cc1
→ 27, -17, 6, 3, 8.5*, 10
28	O=C(C1CCC1)N1CCCCN2[C@H](CO)[C@@H](c3ccc(C#CC4CCCC4)cc3)[C@H]2C1
→ nt, 10, nt, nt, nt, nt
29	Cc1ccsc1/C=C1\SC(N2CC(C)OC(C)C2)=NC1=O (stereo not given)
→ nt, nt, -19, 100*, -2, 5
30	Cc1ccccc1N1CCN(C2=NC(=O)/C(=C\c3cccs3)S2)CC1
→ 29, nt, -4, -1, -1, 8

Only MC4R barr agon, MC4R antag cAMP and Yeast UUG start, for some of the entries so far:
# | compound | MC4R barr agon | MC4R antag cAMP | Yeast UUG start
2 | COc1cccc(/C=N/NC(=O)C(C)Sc2ccccc2)c1 (stereo not given) | 1 | 2 | nt
11 | CNC(=O)C[C@@H]1CC[C@@H]2[C@H](COc3ccc(NC(=O)NCc4ccccc4)cc3C(=O)N2C)O1 | nt | nt | 17
8 | Cc1ccc(-c2nc(N)s[n+]2-c2ccccc2)cc1 | -1 | -2 | nt
29 | Cc1ccsc1/C=C1\SC(N2CC(C)OC(C)C2)=NC1=O (stereo not given) | -2 | -19 | nt
6 | COc1ccccc1S(=O)Cc1ccc(C(=O)NC2CCCC2)o1 (stereo not given) | 0 | 1 | -15

Profiles as entered above. Screens in order: NALP1 yeast inh | Yeast UUG start | MC4R antag cAMP | ALR H2O2 inh | MC4R barr agon | HDAC3 inhib
Cc1ccc(-c2nc(CSCC(=O)Nc3cc(C)on3)c(C)o2)cc1 in the list: 5 | -9 | -3 | nt | -1 | -10
O=C(COc1ccccc1[N+](=O)[O-])N/N=C/c1ccc(O)c([N+](=O)[O-])c1 in the list: -3 | nt | 0 | -7 | -2 | 11

(more compounds)
Order of results – NALP1 yeast inh, Yeast UUG start, MC4R antag cAMP, ALR H2O2 inh, MC4R barr agon, HDAC3 inhib
31	COc1ccc(Nc2nnc(SCc3cc([N+](=O)[O-])cc4c3OCOC4)s2)cc1
→ 44*, nt, 6, -7, -2, 0
32	Cc1nnc(SCc2cc([N+](=O)[O-])cc3c2OCOC3)[nH]c1=O
→ 14, -13, 4, -8, -1, 1
33	CC(C)NC(=O)Nc1ccc2c(c1)C(=O)N([C@@H](C)CO)C[C@H](C)[C@@H](CN(C)S(=O)(=O)c1cn(C)cn1)OCCCC[C@@H](C)O2
→ nt, -16, nt, nt, nt, nt
34	CC1(N(O)C=C2C=CC(=O)C=C2)CCCCC1=O (stereo not given)
→ 0, nt, 5, 99*, 3, -2
35	CCOc1ccc(C(=O)OCC(=O)N2CC(C)OC(C)C2)cc1OCC (stereo not given)
→ 21, -15, 21, -2, -1, 2
36	O=C(COC(=O)c1ccc(CO)cc1)Nc1ccc2ccccc2c1
→ nt, -15, 3, -7, -1, -5
37	N#CCC(=O)Nc1ccc(C(=O)OCC(=O)c2ccc3c(c2)OCO3)cc1
→ nt, -22, -4, 99*, 2, 7
38	CC(C)(C)NC(=O)COC(=O)c1ccc(NC(=O)CC#N)cc1
→ 10, nt, 4, 99*, -2, -2
39	CC1CN(C(=O)COC(=O)c2ccc(NC(=O)CC#N)cc2)CC(C)O1 (stereo not given)
→ -7, nt, 0, 99*, -3, -6
40	N#CCC(=O)Nc1ccc(C(=O)OCC(=O)Nc2ccc3ccccc3c2)cc1
→ nt, nt, 4, 92*, -5, -2
41	N#CCC(=O)Nc1ccc(C(=O)OCC(=O)c2ccc3c(c2)OCCO3)cc1
→ -46, -45, 6, 63, -2, 3
42	CC(C)CCOC(=O)/C(=C/c1ccco1)NC(=O)/C=C/c1ccccc1
→ 4, nt, 3, 90*, -1, 12
43	NC(=O)/C(=C/c1ccco1)NC(=O)/C=C/c1ccccc1
→ 30, -9, -2, -9, -2, 10
44	CCC1Sc2ccccc2N(CC(=O)NCCC2=CCCCC2)C1=O (stereo not given)
→ 43*, nt, 8, -5, 3, -1
45	C[C@H]1CN([C@@H](C)CO)C(=O)c2cc(-c3ccc(C#N)cc3)cnc2O[C@H]1CN(C)C(=O)c1ccccc1
→ nt, -2, nt, nt, nt, nt
46	O=C(C1CC(=O)N(c2ccc3c(c2)OCCO3)C1)N1CCN(c2ccccc2)CC1 (stereo not given)
→ 17, 9, 0, nt, -1, -1
47	O=C(C1CC(=O)N(c2ccc3c(c2)OCCO3)C1)N1CCN(c2ccccc2O)CC1 (stereo not given)
→ 4, -3, 3, 84*, -3, 3
